The values below come from US10072001B2, “Tank-binding kinase inhibitor compounds” (Gilead Sciences, Inc., priority 2014, dated 2018).

Chains of the proteins cited; added tags and fusions are not shown. Lines headed by an entry give the natural chain unless they say otherwise; changes in a name come on top.
UniProt Q14164: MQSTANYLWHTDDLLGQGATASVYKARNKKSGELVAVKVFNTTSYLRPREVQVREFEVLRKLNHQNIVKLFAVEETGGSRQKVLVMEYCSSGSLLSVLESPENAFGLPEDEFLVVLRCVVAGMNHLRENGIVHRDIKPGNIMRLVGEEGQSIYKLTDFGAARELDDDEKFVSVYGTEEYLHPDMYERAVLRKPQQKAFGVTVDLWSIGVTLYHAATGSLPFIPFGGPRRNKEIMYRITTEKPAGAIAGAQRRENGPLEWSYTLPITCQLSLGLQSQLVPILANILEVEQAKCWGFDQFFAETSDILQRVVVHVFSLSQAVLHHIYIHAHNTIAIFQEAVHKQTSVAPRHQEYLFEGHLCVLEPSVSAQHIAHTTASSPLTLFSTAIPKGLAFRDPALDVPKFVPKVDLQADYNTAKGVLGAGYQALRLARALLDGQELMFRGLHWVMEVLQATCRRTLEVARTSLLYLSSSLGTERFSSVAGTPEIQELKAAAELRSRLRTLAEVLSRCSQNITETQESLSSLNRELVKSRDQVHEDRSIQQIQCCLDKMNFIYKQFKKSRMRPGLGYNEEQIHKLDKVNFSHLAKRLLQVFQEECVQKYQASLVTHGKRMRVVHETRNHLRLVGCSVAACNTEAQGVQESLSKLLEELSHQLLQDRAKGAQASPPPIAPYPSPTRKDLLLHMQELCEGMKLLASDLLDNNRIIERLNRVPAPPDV
UniProt Q9UHD2: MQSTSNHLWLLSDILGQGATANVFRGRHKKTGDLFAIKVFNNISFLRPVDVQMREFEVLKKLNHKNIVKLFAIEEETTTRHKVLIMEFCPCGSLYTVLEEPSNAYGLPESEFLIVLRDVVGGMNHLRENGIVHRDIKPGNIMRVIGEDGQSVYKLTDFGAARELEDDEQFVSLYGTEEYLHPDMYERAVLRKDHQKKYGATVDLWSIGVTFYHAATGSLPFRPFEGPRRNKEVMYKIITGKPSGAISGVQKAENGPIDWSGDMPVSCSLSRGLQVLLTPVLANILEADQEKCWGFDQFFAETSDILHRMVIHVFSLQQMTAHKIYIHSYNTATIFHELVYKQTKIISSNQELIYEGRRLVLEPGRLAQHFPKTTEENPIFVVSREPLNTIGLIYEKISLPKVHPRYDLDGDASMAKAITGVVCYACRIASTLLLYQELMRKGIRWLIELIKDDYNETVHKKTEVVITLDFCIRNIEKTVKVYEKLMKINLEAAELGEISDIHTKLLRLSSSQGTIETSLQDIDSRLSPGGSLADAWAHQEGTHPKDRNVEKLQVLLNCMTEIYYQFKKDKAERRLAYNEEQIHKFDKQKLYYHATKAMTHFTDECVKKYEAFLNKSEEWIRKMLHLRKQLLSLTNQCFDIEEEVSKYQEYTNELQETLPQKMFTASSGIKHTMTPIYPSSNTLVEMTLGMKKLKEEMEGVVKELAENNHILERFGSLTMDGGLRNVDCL

SMILES strings stand for the structures. pIC50: −log10 of the molar value.

As usually defined, the pIC50 is −log10 of the IC50, conventionally taken in molar units.

For the first experiment, the target named is IKKε (Homo sapiens (Human), UniProt Q14164). The experiment can be described thus: TR-FRET kinase assay, IKKε. In kind it is biochemical. Conditions: full length recombinant IKKε 0.3 nM, 2x Km ATP, 1 μM peptide, 240 min at 25° C.; geometric mean of minimum four determinations. The source says:
Biological Assay for TBK1 and IKKs:
Regarding `N#Cc1cc(-c2ncnc3[nH]c(-c4ccc(N5CCOCC5)nc4)cc23)ccc1OC1CCOCC1` [Example 155, 5-(6-(6-morpholinopyridin-3-yl)-7H-pyrrolo[2,3-d]pyrimidin-4-yl)-2-((tetrahydro-2H-pyran-4-yl)oxy)benzonitrile], the pIC50 was 7.82.

With `N#Cc1cc(-c2cc3c(-c4ccc(OC5CCOCC5)c(C#N)c4)ncnc3[nH]2)ccc1OC1CCOCC1` [Example 223, 5,5′-(7H-pyrrolo[2,3-d]pyrimidine-4,6-diyl)bis(2-((tetrahydro-2H-pyran-4-yl)oxy)benzonitrile)], the pIC50 was 7.60.

For the compound `CC(C)(C)Oc1cc(-c2cc3c(-c4ccc(OC5CCOCC5)c(C#N)c4)ccnc3[nH]2)ccn1` [Example 225, 5-(2-(2-(tert-butoxy)pyridin-4-yl)-1H-pyrrolo[2,3-b]pyridin-4-yl)-2-((tetrahydro-2H-pyran-4-yl)oxy)benzonitrile], the negative-log IC50 (pIC50) was 6.00.

A further experiment addresses TBK1 (Homo sapiens (Human), UniProt Q9UHD2). The experiment can be described thus: TR-FRET kinase assay, TBK1. The note with it: read-out: TBK1-IC50; full length recombinant TBK1 2.5 nM, 2x Km ATP, 1 μM peptide, 240 min at 25° C.; geometric mean of minimum four determinations. (In general: In TR-FRET formats the signal depends on donor and acceptor labels being close together.)
For the compound `N#Cc1cc(-c2ncnc3[nH]ccc23)ccc1OC1CCOCC1` [Example 108, 5-(7H-pyrrolo[2,3-d]pyrimidin-4-yl)-2-((tetrahydro-2H-pyran-4-yl)oxy)benzonitrile], the pIC50 was 5.85.

Regarding `CC(C)(C)Oc1cc(-c2cc3c(-c4ccc(OC5CCOCC5)c(C#N)c4)ccnc3[nH]2)ccn1` [Example 225, 5-(2-(2-(tert-butoxy)pyridin-4-yl)-1H-pyrrolo[2,3-b]pyridin-4-yl)-2-((tetrahydro-2H-pyran-4-yl)oxy)benzonitrile], the negative logarithm of the IC50 (pIC50) is 6.00.

With `COC(=O)c1ccc(-c2cc3c(-c4ccc(OC5CCOCC5)c(C#N)c4)ccnc3[nH]2)cc1` [Example 238, Methyl 4-(4-(3-cyano-4-((tetrahydro-2H-pyran-4-yl)oxy)phenyl)-1H-pyrrolo[2,3-b]pyridin-2-yl)benzoate], the negative-log IC50 (pIC50) was 6.57.
